Measured values reported in ChEMBL document CHEMBL1833812, “Synthesis, biological evaluation, and automated docking of constrained analogues of the opioid peptide H-Dmt-D-Ala-Phe-Gly-NH₂ using the 4- or 5-methyl substituted 4-amino-1,2,4,5-tetrahydro-2-benzazepin-3-one scaffold” (J Med Chem, 2011).

Chains of the proteins cited; added tags and fusions are not shown.
UniProt P35372, whole entry: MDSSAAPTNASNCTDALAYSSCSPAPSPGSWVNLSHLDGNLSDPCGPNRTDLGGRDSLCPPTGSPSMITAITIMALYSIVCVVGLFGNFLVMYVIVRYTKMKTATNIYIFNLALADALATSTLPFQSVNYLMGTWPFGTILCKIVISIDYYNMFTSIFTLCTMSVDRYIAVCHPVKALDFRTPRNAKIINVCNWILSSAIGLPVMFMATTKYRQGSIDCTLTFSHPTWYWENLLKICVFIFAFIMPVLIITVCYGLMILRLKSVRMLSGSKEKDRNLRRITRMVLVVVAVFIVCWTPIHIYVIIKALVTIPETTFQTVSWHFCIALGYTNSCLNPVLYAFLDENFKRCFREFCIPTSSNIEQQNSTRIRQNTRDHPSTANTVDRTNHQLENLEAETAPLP

Target: Mu-type opioid receptor (Homo sapiens, UniProt P35372)
Assay: Agonist activity at Mu-type opioid receptor
Format: functional

C[C@@H](NC(=O)[C@@H](N)Cc1ccc(O)cc1)C(=O)N[C@@H](Cc1ccccc1)C(=O)NCC(=O)N[C@@H](Cc1ccc(O)cc1)C(=O)N1CCC[C@H]1C(=O)N[C@@H](CO)C(N)=O [DERMORPHIN]
IC50: 2.4 nM
